An excerpt weighted towards active compounds, which were near 0.43% of everything screened.
HCMV NEC inh = inhibitors of HCMV UL50-UL53 interaction, biochemical, HTRF; HCMV UL50-UL53 nuclear egress complex (human cytomegalovirus); normalized percent inhibition; inhibition, % (test concentration not listed); 0.15% of 190,000 active; AID 1918969, 2023; in the data active means inhibition above about 27%, passing the limit was not always enough
GIV-Gai inh = blocks GIV peptide binding to rat Galpha-i3. P08753. Galpha-i3/FITC-GIV peptide fluorescence polarization, 90 min; stronger effect = lower value; scaled: aluminum fluoride 0%, vehicle 100%. percent of control (FP), % (test concentration not listed). actives 0.42% (n = 210,000). AID 1224905;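 active means replicate mean at 85% of control or lower, very high polarization wells dropped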;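 further: wells of about 15 µL received 100 nL stock; the first replicate is given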
GIV Gai FP conf = inhibitors of GIV peptide binding to Galpha-i3, confirmation, biochemical, fluorescence polarization, FITC-GIV peptide, rat Galphai3; shares compounds with GIV-Gai inh; active compounds read low; fluorescence polarization, mP at 100 µM; 38% of 580 active; AID 1259350, 2017;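 active means inhibition score of 15 or more, meaning 100 minus mean polarization as percent of control over three replicates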;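 further: lower mP means peptide displaced from Galphai3 so more inhibition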
GIV Gai AS conf = inhibitors of GIV binding to Galpha-i3, confirmation, orthogonal assay for GIV-Galpha-i inhibitor project, biochemical, AlphaScreen, His-GIV, GST-Galphai3; 39% of 580 active; purified proteins, 90 min; active compounds read low; shares compounds with GIV-Gai inh; AID 1259351, 2017; AlphaScreen counts at 100 µM;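 active means inhibition score at or above a set limit, where the score is 100 minus the three-replicate mean percent of control signal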
An asterisk follows results filed as active; x = no result given.

1: CSc1scc2c1C(=O)/C(=C/N(C)C)CC2
2: COC(=O)c1c(-c2ccc(F)cc2)noc1NCCN1CCCC1
3: COc1cccc(C2=N/C(=C\c3ccccc3OC)C(=O)N2c2ccc(C)cc2C)c1
4: COc1cccc(C2=N/C(=C\c3ccccc3OC)C(=O)N2c2ccc(C)cc2Br)c1
5: Cn1c(N)c(S(=O)(=O)NC2CCCCC2)c(=O)n(C)c1=O
6: N#CC1=C(SCc2ccccc2)SC(c2ccc(C(=O)O)cc2)NC1=O (configuration not stated)
7: N#CC1=C(SCc2ccccc2)SC(CO)NC1=O (configuration not stated)
8: CCn1c(=S)sc2c(=O)n3[nH]c(=O)c4ccccc4c3nc21
Compound | 1 | 2 | 3 | 4 | 5 | 6 | 7 | 8
HCMV NEC inh | -84 | x | x | x | 21 | x | -15 | 4
GIV-Gai inh | 14* | 102 | 73* | 114 | 106 | 74* | 106 | 107
GIV Gai FP conf | 29* | x | 68 | x | x | 65 | x | x
GIV Gai AS conf | 1880* | x | 40847 | x | x | 28170* | x | x

An excerpt from above with just GIV Gai AS conf, HCMV NEC inh and GIV-Gai inh.
#	Molecule	GIV Gai AS conf	HCMV NEC inh	GIV-Gai inh
5	Cn1c(N)c(S(=O)(=O)NC2CCCCC2)c(=O)n(C)c1=O	x	21	106
6	N#CC1=C(SCc2ccccc2)SC(c2ccc(C(=O)O)cc2)NC1=O (configuration not stated)	28170*	x	74*

Next results follow.
9: CC(C(=O)O)N1CCCC1=O (configuration not stated)
10: CCOC(=O)CN1C(=O)C2CC=C(Cl)CC2C1=O (configuration not stated)
11: O=C1C2CC=C(Cl)CC2C(=O)N1CCO (configuration not stated)
12: CCN(CC)C(=O)CN1C(=O)CCCc2ccccc21
13: O=C(CSc1ncnc2sc(-c3ccccc3)cc12)Nc1ccc2c(c1)OCO2
14: Cc1ccc(N2C(=O)CCS2(=O)=O)cc1S(=O)(=O)NCC(C)C
15: CN(C)c1ccc(-c2nnc3sc(-c4cccnc4)nn23)cc1
16: CN(C)c1ccc(-c2nnc3sc(-c4ccncc4)nn23)cc1
Compound | 9 | 10 | 11 | 12 | 13 | 14 | 15 | 16
HCMV NEC inh | -2 | -16 | 9 | -5 | -21 | -8 | -16 | -63
GIV-Gai inh | 105 | 81* | 104 | 109 | 105 | 98 | 83* | 106
GIV Gai FP conf | x | 61 | x | x | x | x | 63 | x
GIV Gai AS conf | x | 47532 | x | x | x | x | 30008 | x

17: COc1cc(NC(=O)c2sc3nc4n(c(=O)c3c2C)CCCCC4)cc(OC)c1OC
18: COc1ccc(NC(=O)c2sc3nc4n(c(=O)c3c2C)CCC4)cc1Cl
19: O=[N+]([O-])c1ccc(N2CCCCC2)cc1Sc1nc2ccccc2[nH]1
20: O=[N+]([O-])c1ccc(NCCCO)cc1Sc1nc2ccccc2[nH]1
21: O=C(Cn1ncc2c(=O)oc3ccccc3c21)NCCCN1CCCCCC1
22: C=CCN(CC=C)S(=O)(=O)c1ccc(C(=O)Nc2ccc3c4c(cccc24)C(=O)N3CC)cc1
23: CCCN(CCC)S(=O)(=O)c1ccc(C(=O)Nc2ccc3c4c(cccc24)C(=O)N3CC)cc1
24: COC(=O)CCC[C@H](O)[C@H](O)CO
Compound | 17 | 18 | 19 | 20 | 21 | 22 | 23 | 24
HCMV NEC inh | -8 | 3 | x | x | -1 | x | x | -22
GIV-Gai inh | 104 | 83* | 88 | 111 | 91 | 78* | 130 | x
GIV Gai FP conf | x | 80 | 62 | x | x | 64 | x | x
GIV Gai AS conf | x | 33472 | 54142 | x | x | 46376 | x | x

25: Cc1cc(N2CCCCC2)n2ncc(-c3ccc(F)cc3)c2n1
26: COC(=O)c1c(NC(=O)CC2Sc3ccccc3NC2=O)sc(C)c1C (configuration not stated)
27: COC(=O)c1c(NC(=O)CC2Nc3cc(C)c(C)cc3NC2=O)sc(C)c1C (configuration not stated)
28: Cc1[nH]n(-c2ccccc2)c(=O)c1C(c1ccccc1OCc1ccccc1)c1c(C)[nH]n(-c2ccccc2)c1=O
29: CCOc1cc(C(c2c(C)[nH]n(-c3ccccc3)c2=O)c2c(C)[nH]n(-c3ccccc3)c2=O)ccc1OCc1ccccc1
30: CCOc1cc(C(c2c(C)[nH]n(-c3ccccc3)c2=O)c2c(C)[nH]n(-c3ccccc3)c2=O)ccc1OC
31: CCOc1ccc(C(c2c(C)[nH]n(-c3ccccc3)c2=O)c2c(C)[nH]n(-c3ccccc3)c2=O)cc1OC
32: CCN(CC)C(=O)N1CCC(C(=O)OC)CC1
Compound | 25 | 26 | 27 | 28 | 29 | 30 | 31 | 32
HCMV NEC inh | -13 | 8 | x | x | x | x | 29 | -19
GIV-Gai inh | 101 | x | 94 | 107 | 82* | 70* | 96 | 109
GIV Gai FP conf | x | x | 22* | x | 58* | 61 | x | x
GIV Gai AS conf | x | x | 26621 | x | 37780 | 9976* | x | x

33: Cc1cccc(NC(=O)NC(C)c2c(-n3cccc3)sc(C)c2C)c1C (configuration not stated)
34: Cc1ccc(NC(=O)NC(C)c2c(-n3cccc3)sc(C)c2C)cc1F (configuration not stated)
35: COc1ccc(NS(=O)(=O)c2cnc(N)nc2)cc1
36: CCN(CC)S(=O)(=O)c1ccc(-c2ccc(C3N=C(N)Nc4nc5ccccc5n43)o2)cc1 (configuration not stated)
37: O=c1[nH]nc(SCc2cccc(Oc3ccccc3)c2)c(=O)[nH]1
38: CCN(CC)c1ccc(/C=c2\sc3ncnn3c2=O)cc1
39: COc1ccc(/C=c2\sc3ncnn3c2=O)cc1
40: N#CC1=C(N)Oc2c(C=Nc3ccccc3)ccc(O)c2C1c1cccc([N+](=O)[O-])c1 (configuration not stated)
Compound | 33 | 34 | 35 | 36 | 37 | 38 | 39 | 40
HCMV NEC inh | x | -29 | x | -19 | -4 | x | -36 | x
GIV-Gai inh | 89 | 103 | 99 | x | 106 | 57* | x | 149
GIV Gai FP conf | 71 | x | x | x | x | 35* | x | x
GIV Gai AS conf | 49525 | x | x | x | x | 49389 | x | x

Looked up above:
Under HCMV NEC inh, CCN(CC)S(=O)(=O)c1ccc(-c2ccc(C3N=C(N)Nc4nc5ccccc5n43)o2)cc1 (configuration not stated) shows -19
Under GIV-Gai inh, COc1ccc(NS(=O)(=O)c2cnc(N)nc2)cc1 shows 99
Under GIV-Gai inh, O=c1[nH]nc(SCc2cccc(Oc3ccccc3)c2)c(=O)[nH]1 shows 106

(listing goes on)
41: C=CCC(Nc1ccc(F)cc1)c1ccco1 (configuration not stated)
42: CCCS(=O)(=O)N1CCCC(C(=O)NC(C)C)C1 (configuration not stated)
43: C=CCNC(=O)C1CCCN(S(=O)(=O)CCC)C1 (configuration not stated)
44: CCOc1ccccc1N(CC)C(=O)Cn1ncc2c(=O)oc3ccccc3c21
45: CCN(C(=O)Cn1ncc2c(=O)oc3ccccc3c21)c1cc(OC)ccc1OC
46: NNC(=O)c1ccc(CS(=O)(=O)c2ccccc2)o1
47: O=C(O)c1ccc(CS(=O)(=O)c2ccccc2)o1
48: O=c1[nH]c(O)c(N=Nc2ccc(S(=O)(=O)N3CCCCC3)cc2)c(=O)[nH]1
Compound | 41 | 42 | 43 | 44 | 45 | 46 | 47 | 48
HCMV NEC inh | -3 | -31 | 1 | -8 | 4 | 5 | x | -31
GIV-Gai inh | 102 | 107 | 84* | 100 | 86 | x | 77* | 105
GIV Gai FP conf | x | x | 64 | x | 65 | x | 55 | x
GIV Gai AS conf | x | x | 51209 | x | 47620 | x | 2163* | x

49: CC1(C)C2([N+](=O)[O-])CN3CC1([N+](=O)[O-])CN(C2)C3c1ccc(O)cc1 (configuration not stated)
50: CC1(C)N2CC3([N+](=O)[O-])CN1CC([N+](=O)[O-])(C2)C3(C)C
51: COc1ccc(-n2cnnc2SCc2c(C#N)oc3ccc(Br)cc23)cc1
52: O=C(Nc1cccc(C(F)(F)F)c1)c1ccc(F)c(S(=O)(=O)N2CCN(c3ccc(F)cc3)CC2)c1
53: O=Cc1c(O)c2ccccc2c2ccccc12
54: O=c1oc2ccccc2c(O)c1C=Nc1ccccc1
55: O=C(Nc1ccc2c(c1)OCO2)c1nnc(C(=O)N2CCCC(C(=O)NCCC3=CCCCC3)C2)s1 (configuration not stated)
56: CC(NCCO)c1ccc2c(c1)OCCO2 (configuration not stated)
57: CC(NC(=O)c1ccccc1C(=O)NC(C)c1ccc2c(c1)OCCO2)c1ccc2c(c1)OCCO2 (configuration not stated)
Compound | 49 | 50 | 51 | 52 | 53 | 54 | 55 | 56 | 57
HCMV NEC inh | x | x | -29 | x | -27 | -14 | -17 | -2 | -25
GIV-Gai inh | 128 | 92 | x | 108 | 44* | 107 | 104 | 78* | 105
GIV Gai FP conf | x | 64 | x | x | 38* | x | x | 75 | x
GIV Gai AS conf | x | 45009 | x | x | 22285 | x | x | 36499 | x
